The text below walks through data of IntAct's records for PubMed 21151116.

B1: "DNA (cytosine-5)-methyltransferase 1" (Homo sapiens), P26358 (parent)
chain: MPARTAPARVPTLAVPAISLPDDVRRRLKDLERDSLTEKECVKEKLNLLHEFLQTEIKNQLCDLETKLRKEELSEEGYLAKVKSLLNKDLSLENGAHAYNREVNGRLENGNQARSEARRVGMADANSPPKPLSKPRTPRRSKSDGEAKPEPSPSPRITRKSTRQTTITSHFAKGPAKRKPQEESERAKSDESIKEEDKDQDEKRRRVTSRERVARPLPAEEPERAKSGTRTEKEEERDEKEEKRLRSQTKEPTPKQKLKEEPDREARAGVQADEDEDGDEKDEKKHRSQPKDLAAKRRPEEKEPEKVNPQISDEKDEDEKEEKRRKTTPKEPTEKKMARAKTVMNSKTHPPKCIQCGQYLDDPDLKYGQHPPDAVDEPQMLTNEKLSIFDANESGFESYEALPQHKLTCFSVYCKHGHLCPIDTGLIEKNIELFFSGSAKPIYDDDPSLEGGVNGKNLGPINEWWITGFDGGEKALIGFSTSFAEYILMDPSPEYAPIFGLMQEKIYISKIVVEFLQSNSDSTYEDLINKIETTVPPSGLNLNRFTEDSLLRHAQFVVEQVESYDEAGDSDEQPIFLTPCMRDLIKLAGVTLGQRRAQARRQTIRHSTREKDRGPTKATTTKLVYQIFDTFFAEQIEKDDREDKENAFKRRRCGVCEVCQQPECGKCKACKDMVKFGGSGRSKQACQERRCPNMAMKEADDDEEVDDNIPEMPSPKKMHQGKKKKQNKNRISWVGEAVKTDGKKSYYKKVCIDAETLEVGDCVSVIPDDSSKPLYLARVTALWEDSSNGQMFHAHWFCAGTDTVLGATSDPLELFLVDECEDMQLSYIHSKVKVIYKAPSENWAMEGGMDPESLLEGDDGKTYFYQLWYDQDYARFESPPKTQPTEDNKFKFCVSCARLAEMRQKEIPRVLEQLEDLDSRVLYYSATKNGILYRVGDGVYLPPEAFTFNIKLSSPVKRPRKEPVDEDLYPEHYRKYSDYIKGSNLDAPEPYRIGRIKEIFCPKKSNGRPNETDIKIRVNKFYRPENTHKSTPASYHADINLLYWSDEEAVVDFKAVQGRCTVEYGEDLPECVQVYSMGGPNRFYFLEAYNAKSKSFEDPPNHARSPGNKGKGKGKGKGKPKSQACEPSEPEIEIKLPKLRTLDVFSGCGGLSEGFHQAGISDTLWAIEMWDPAAQAFRLNNPGSTVFTEDCNILLKLVMAGETTNSRGQRLPQKGDVEMLCGGPPCQGFSGMNRFNSRTYSKFKNSLVVSFLSYCDYYRPRFFLLENVRNFVSFKRSMVLKLTLRCLVRMGYQCTFGVLQAGQYGVAQTRRRAIILAAAPGEKLPLFPEPLHVFAPRACQLSVVVDDKKFVSNITRLSSGPFRTITVRDTMSDLPEVRNGASALEISYNGEPQSWFQRQLRGAQYQPILRDHICKDMSALVAARMRHIPLAPGSDWRDLPNIEVRLSDGTMARKLRYTHHDRKNGRSSSGALRGVCSCVEAGKACDPAARQFNTLIPWCLPHTGNRHNHWAGLYGRLEWDGFFSTTVTNPEPMGKQGRVLHPEQHRVVSVRECARSQGFPDTYRLFGNILDKHRQVGNAVPPPLAKAIGLEIKLCMLAKARESASAKIKEEEAAKD
partner: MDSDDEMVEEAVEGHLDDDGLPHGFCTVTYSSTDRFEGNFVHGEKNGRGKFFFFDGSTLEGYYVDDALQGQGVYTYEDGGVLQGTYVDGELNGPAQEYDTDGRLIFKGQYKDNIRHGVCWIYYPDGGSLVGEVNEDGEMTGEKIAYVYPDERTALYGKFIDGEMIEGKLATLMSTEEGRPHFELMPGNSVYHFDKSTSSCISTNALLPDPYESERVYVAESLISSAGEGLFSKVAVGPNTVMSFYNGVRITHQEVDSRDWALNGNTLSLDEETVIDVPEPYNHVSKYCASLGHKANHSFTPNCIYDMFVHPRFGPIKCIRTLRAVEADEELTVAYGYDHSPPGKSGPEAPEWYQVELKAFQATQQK
B2: "DNA (cytosine-5)-methyltransferase 1" (Homo sapiens), P26358 (parent)
chain: B1 chain
partner: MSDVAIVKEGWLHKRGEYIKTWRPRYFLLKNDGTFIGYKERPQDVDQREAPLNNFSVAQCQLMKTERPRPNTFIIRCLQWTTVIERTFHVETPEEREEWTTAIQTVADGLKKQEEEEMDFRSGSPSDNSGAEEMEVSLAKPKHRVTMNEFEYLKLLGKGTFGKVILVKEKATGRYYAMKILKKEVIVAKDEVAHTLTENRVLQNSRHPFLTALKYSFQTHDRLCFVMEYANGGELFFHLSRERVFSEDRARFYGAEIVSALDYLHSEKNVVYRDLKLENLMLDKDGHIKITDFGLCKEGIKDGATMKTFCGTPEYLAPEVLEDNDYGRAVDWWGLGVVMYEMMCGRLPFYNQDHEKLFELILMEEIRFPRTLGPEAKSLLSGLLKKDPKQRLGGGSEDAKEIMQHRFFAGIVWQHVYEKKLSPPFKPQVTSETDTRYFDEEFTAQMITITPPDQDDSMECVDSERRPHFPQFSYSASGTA

In one experiment the parent is B1. The settings on record: with setd7_human SETD7, Q8WTS6.
For S143D, the “effect of a mutation on the interaction” value is “disrupting interaction”.

Variants of B1 are the subject of the next experiment. The settings on record: with setd7_human SETD7, Q8WTS6. The source holds these as a separate data set.
Turning to K142R, the “effect of a mutation on the interaction” value is given as “disrupting interaction”.

Variants of B2 are the subject of another experiment. To be noted: with akt1_human AKT1, P31749.
Consider S143A, for which the “effect of a mutation on the interaction” value is “disrupting interaction”.
